Reference: patent publication US20060051824A1, “Tetrahydrocannabinoid antigens and method of use” (priority 2004, published 2006)

Tested on: Δ^8-THC antibody (AF9-14FR-4-2)
Assay: Binding of antigens to a control Δ^8-THC antibody, evaluated by measuring the A450 (FIG. 11)
Settings: control Δ^8-THC antibody AF9-14FR-4-2

Substance: Δ^9-THC
- binding to the Δ^8-THC antibody, in words, compared with the Δ^8-THC control antigen: very little
